Values quoted from earlier work as cited in PMC5067215.

Sequences of proteins named here, by UniProt entry; tags and fusion partners are left off. Residues count along the entry.
UniProt P04233, 73-296: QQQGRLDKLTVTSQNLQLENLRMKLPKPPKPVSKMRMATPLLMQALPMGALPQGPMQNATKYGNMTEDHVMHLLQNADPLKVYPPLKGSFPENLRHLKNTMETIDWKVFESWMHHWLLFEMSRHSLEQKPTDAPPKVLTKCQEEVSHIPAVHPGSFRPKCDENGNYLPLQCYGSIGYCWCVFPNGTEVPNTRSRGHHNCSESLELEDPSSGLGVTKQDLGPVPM
UniProt P14174, 2-115: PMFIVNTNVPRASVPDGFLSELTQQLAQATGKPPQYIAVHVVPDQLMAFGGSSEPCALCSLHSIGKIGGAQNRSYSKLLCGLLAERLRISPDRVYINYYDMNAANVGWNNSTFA

Target: CD74 (Homo sapiens) (UniProt P04233)

**Q.** With MIF (from UniProt P14174) as the substance, how does the Kd read?
**A.** Its Kd is 1.4 nM.
